{"sequences": {"note": "By UniProt entry, the sequences of proteins in these tests, tags left out. Residues count along the entry.", "UniProt Q13510, 143-395": "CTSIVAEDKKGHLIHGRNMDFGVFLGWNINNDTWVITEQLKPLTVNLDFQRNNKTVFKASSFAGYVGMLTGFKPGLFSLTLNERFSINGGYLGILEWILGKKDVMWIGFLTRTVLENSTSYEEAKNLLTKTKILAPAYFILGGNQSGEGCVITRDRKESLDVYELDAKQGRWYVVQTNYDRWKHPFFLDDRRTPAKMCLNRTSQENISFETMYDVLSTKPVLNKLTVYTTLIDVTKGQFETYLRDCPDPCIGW", "UniProt Q13510, 22-142": "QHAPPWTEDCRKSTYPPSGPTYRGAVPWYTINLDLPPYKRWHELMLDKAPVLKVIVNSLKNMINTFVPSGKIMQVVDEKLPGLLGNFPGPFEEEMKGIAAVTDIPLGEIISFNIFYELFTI"}, "source": "patent US10213416B2", "about": "“Substituted benzoxazolone derivatives as acid ceramidase inhibitors, and their use as medicaments” (FONDAZIONE ISTITUTO ITALIANO DI TECNOLOGIA, priority 2014, dated 2019)", "molecular_target": "human (hAC) acid ceramidase (Homo sapiens (Human), UniProt Q13510)", "assay": "Fluorescent-based in vitro assay of acid ceramidase inhibition", "format": "biochemical", "conditions": "human acid ceramidase-enriched lysosomal lysate from HEK293 cells, fluorogenic probe 5 μM, pH 4.5", "description": "To evaluate the potency of the compounds towards acid ceramidase, a fluorescence-based in vitro assay previously described in literature (Bedia C et al., ChemBioChem, 2007, 8, 642-648) was implemented and optimized. This assay is based on a “fluorogenic probe” containing a coumarin group and a sphingoid base moiety (see figure below), which is not fluorescent in itself, but upon enzymatic cleavage by acid ceramidase followed by a chemical transformation liberates the fluorescent molecule umbelliferone (7-hydroxychromen-2-one). By quantifying the generation of umbelliferone using a fluorescence plate-reader, the level of enzymatic activity can be measured, whereby IC50 values of compounds that inhibit this activity can be generated.\nLysosomal lysate, enriched with acid ceramidase, was prepared from a cell line stably expressing human acid ceramidase. […]\nA lysosomal human acid ceramidase protein preparation was obtained from HEK293 cells stably expressing acid ceramidase suspended in 20 mM Tris HCl (pH 7.5) with 0.32 M sucrose. […] The suspension was finally centrifuged at 105,000×g for 1 h at 4° C. and protein concentration was measured in the supernatant with bicinchinonic-acid based protein assay. […]"}
{"smiles": "COc1ccc(C(O)c2ccc3c(c2)oc(=O)n3C(=O)NCCCCCc2ccccc2)cc1", "note": "(racemic) [Example 7, (±)-6-[hydroxy-(4-methoxyphenyl)methyl]-2-oxo-N-(5-phenylpentyl)-1,3-benzoxazole-3-carboxamide]", "values": [{"measurement": "IC50", "value": "220 ± 70", "unit": "nM"}]}
